Where “and” joins values, the source holds several entries; their conditions need not be identical. Equal values may be shown once.
Tested on: Mycobacterium tuberculosis CDC1551 (intracellular, in murine BMDM)
Assay: area under intracellular growth-inhibition dose-response curve (AUC (% inhibition x dose, relative)); higher = more potent
Conditions: duration: 6 days; dose range: 0.13-80 uM, 8 points
Procedure: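 Primary murine bone marrow-derived macrophages in 384-well plates were infected with luciferase-expressing M. tuberculosis CDC1551 (MOI 1, 1 h), then treated with an 8-point 2.5-fold dose response (80 to 0.13 uM) for 6 days. Intracellular growth was read by luciferase and normalised to rifampicin and to the lowest-dose wells. The AUC of the % inhibition dose-response was computed in Prism.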

| SMILES | area under intracellular growth-inhibition dose-response curve |
| --- | --- |
| CCc1cc(C(N)=S)ccn1 | 257 and 153 |
| Clc1cc2cccnc2c2ncccc12 | 239 |
| CN(C/C=C/c1ccccc1)Cc1cccc2ccccc12.Cl | 40.6 |
| CCOc1ccc(NC(=S)Nc2ccc(OCC)cc2)cc1 | 274 |
| C[CH2][Hg][S]c1ccccc1C(=O)[O-].[Na+] | 186 |
